These are literature values, as cited in US12378302B2, “Fusion molecules and uses thereof” (Foundation Medicine, Inc., priority 2012, dated 2025).

Molecules are shown by their SMILES.

For the series, the system named is pancreatic cancer. To be noted: Phase 1, in combination with other drugs.

`CS(=O)(=O)CCNCc1ccc(-c2ccc3ncnc(Nc4ccc(OCc5cccc(F)c5)c(Cl)c4)c3c2)o1` [lapatinib]: the safety entry is reported as “safety”.
